Test results published in patent US20260250416A1, “MUTANT OF ANTIBODY VARIABLE REGION, AND USE THEREOF” (SHENYANG PHARMACEUTICAL UNIVERSITY, priority 2022, published 2026).

Experiment: Detection of free sulfhydryl groups in the antibody products using Ellman's method
Format: physicochemical
Conditions: DTNB, OD 412 nm, antibody 5 mg/mL
Description: Ellman's method (Thermo Fisher Scientific (China) Inc.) is used in the present disclosure to detect the content of the free sulfhydryl groups in antibody products so as to select cell lines suitable for further conjugation. A 0.1M Na2HPO4 solution, a DTNB (10 mM) solution, and a cysteine standard solution with a final concentration of 0.0059 M~0.375 M were formulated. Antibody samples to be detected were also prepared at a concentration of 5 mg/mL. 250 μL 0.1M Na2HPO4 and 5 μL DTNB solutions were added into 1.5 mL EP tube containing the cysteine standard solution and the sample to be detected, vortexed and shaken to mix well and incubated for 5 min at room temperature. The OD value was detected at the wavelength of 412 nm. A standard curve was established based on the OD values, and the sulfhydryl content of the sample was calculated.

Row | Substance | the free sulfhydryl group % [%]
1 | HC12C: Trastuzumab scFv, heavy chain position 12 (Kabat) to cysteine; VH SEQ ID NO: 8, VL SEQ ID NO: 5 | 93.22
2 | WT: wild-type anti-HER2 Trastuzumab single chain antibody fragment, VH SEQ ID NO: 4, VL SEQ ID NO: 5 | 3.28
